Earlier results in patent US20220127568A1, “COMPOSITIONS AND METHODS FOR GENERATING HAIR CELLS BY INHIBITING EPIGENETIC TARGETS” (Frequency Therapeutics, Inc., priority 2019, published 2022).

The chains behind the UniProt entries cited, without tags or fusion partners.
UniProt Q15910, whole entry, species assumed: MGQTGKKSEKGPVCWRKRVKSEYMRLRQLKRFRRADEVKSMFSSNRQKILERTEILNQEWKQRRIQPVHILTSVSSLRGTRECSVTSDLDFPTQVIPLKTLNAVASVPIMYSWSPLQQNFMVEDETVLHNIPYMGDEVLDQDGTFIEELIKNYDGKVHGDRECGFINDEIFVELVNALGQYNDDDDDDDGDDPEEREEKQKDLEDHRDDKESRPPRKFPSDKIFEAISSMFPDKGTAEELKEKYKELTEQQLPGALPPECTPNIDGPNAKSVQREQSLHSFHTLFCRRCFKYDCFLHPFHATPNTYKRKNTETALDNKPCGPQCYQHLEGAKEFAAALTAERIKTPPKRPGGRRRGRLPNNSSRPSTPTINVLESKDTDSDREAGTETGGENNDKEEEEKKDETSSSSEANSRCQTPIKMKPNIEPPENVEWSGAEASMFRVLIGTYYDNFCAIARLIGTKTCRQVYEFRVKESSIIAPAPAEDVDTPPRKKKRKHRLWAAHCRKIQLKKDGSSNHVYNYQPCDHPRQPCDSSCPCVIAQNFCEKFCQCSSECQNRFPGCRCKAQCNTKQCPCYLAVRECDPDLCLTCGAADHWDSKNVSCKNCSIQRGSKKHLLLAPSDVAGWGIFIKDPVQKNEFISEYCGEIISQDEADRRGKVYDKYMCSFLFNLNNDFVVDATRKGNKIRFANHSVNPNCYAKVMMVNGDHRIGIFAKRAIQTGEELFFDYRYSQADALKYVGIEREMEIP

Tests used:
[1] = target: T1, EZH2 (Homo sapiens, UniProt Q15910); details: Table 7, EZH2 (incl. EED, SAH-hydrolase) inhibitors; read-out: pKi or IC50 (converted); cited from earlier work
[2] = target: T1, EZH2; details: literature cell potency, EZH2 inhibitors; cited from earlier work

CCN(c1cc(C#CCN2CCOCC2)cc(C(=O)NCc2c(C)cc(C)[nH]c2=O)c1C)[C@H]1CC[C@H](N(C)CCOC)CC1 [EPZ-011989]
IC50 [1]: < 3 nM

CCCc1cc(C)[nH]c(=O)c1CNC(=O)c1cc(-c2ccnc(N3CCN(C)CC3)c2)cc2c1cnn2C(C)C [GSK343]
IC50 [1]: 1.2 nM

Cc1cc(C)c(CNC(=O)c2cc(Cl)c3c(c2C)O[C@@](C)([C@H]2CC[C@H](N(C)C)CC2)O3)c(=O)[nH]1 [valemetostat]
Lit Cell Poten [2]: 25 to 250 nM
